Test results from ChEMBL document CHEMBL4043177 (Bioorg Med Chem, 2017).

The chains behind the UniProt entries cited, without tags or fusion partners.
UniProt O43614, whole entry: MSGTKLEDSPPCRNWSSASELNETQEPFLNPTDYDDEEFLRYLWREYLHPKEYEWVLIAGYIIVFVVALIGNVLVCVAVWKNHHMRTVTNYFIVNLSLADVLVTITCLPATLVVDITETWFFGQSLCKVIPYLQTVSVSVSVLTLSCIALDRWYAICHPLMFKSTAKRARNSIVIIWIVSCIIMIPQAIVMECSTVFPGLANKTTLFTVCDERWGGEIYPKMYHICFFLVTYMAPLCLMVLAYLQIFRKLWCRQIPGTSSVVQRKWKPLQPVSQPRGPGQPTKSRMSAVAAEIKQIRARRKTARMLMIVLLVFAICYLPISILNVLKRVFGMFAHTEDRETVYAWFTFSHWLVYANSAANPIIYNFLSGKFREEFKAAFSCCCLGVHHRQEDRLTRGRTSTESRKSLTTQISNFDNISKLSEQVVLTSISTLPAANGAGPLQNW
UniProt O43613, whole entry: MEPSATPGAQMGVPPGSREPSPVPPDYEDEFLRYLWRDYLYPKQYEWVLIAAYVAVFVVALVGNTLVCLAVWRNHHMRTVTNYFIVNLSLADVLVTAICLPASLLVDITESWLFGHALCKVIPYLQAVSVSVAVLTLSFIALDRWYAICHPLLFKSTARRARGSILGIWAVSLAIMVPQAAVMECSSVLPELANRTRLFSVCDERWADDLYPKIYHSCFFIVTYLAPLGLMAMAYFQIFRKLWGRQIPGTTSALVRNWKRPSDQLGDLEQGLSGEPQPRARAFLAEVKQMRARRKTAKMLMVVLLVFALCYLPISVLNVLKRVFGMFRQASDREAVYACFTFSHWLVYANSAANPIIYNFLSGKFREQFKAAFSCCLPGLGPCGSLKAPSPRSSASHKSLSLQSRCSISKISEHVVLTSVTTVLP

Columns and labels:
Orexin receptor type 2 = Orexin receptor type 2 (Homo sapiens, UniProt O43614); assay: Antagonist activity at human OX2R expressed in CHO cells assessed as reduction in [Ala6,12]orexin-A-induced intracellular Ca2+ mobilization incubated for 30 mins by Fluo-4AM dye based fluorescence assay; type: functional, cell-based
How it was run: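 CHO cells stably expressing human OX2R, seeded a day ahead, loaded with 0.15 μM Fluo-4AM (HBSS pH 7.4, 20 mM HEPES, 0.1% BSA, 2.5 mM probenecid) for 1 h at 37 °C. Compound given 30 min at room temperature, then 1 nM final [Ala6,12]orexin-A. Ca2+ fluorescence read; IC50 by nonlinear regression; 2–4 runs, duplicate or triplicate.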

Homo sapiens = species on record: Homo sapiens; assay: Selectivity index, ratio of IC50 for human OX2R expressed in CHO cells to IC50 for human OX1R expressed in CHO cells; type: cell-based
[1] = target: Orexin/Hypocretin receptor type 1 (Homo sapiens, UniProt O43613); assay: Antagonist activity at human OX1R expressed in CHO cells assessed as reduction in [Ala6,12]orexin-A-induced intracellular Ca2+ mobilization incubated for 30 mins by Fluo-4AM dye based fluorescence assay; type: functional, cell-based

| IC50 (Orexin receptor type 2) [nM] | IC50 [1] [nM] | SMILES | Ratio IC50 (Homo sapiens) |
| --- | --- | --- | --- |
| 532 | 2.01 | CCN(C(=O)c1cc(F)ccc1-c1ncccn1)[C@@H](C)Cn1nnc(-c2ccc(F)cc2)n1 | 265 |
| 1310 | – | CCN(C(=O)c1nc(C)ccc1-c1ncccn1)[C@@H](C)Cn1nnc(-c2ccc(F)cc2)n1 | – |
